Patent publication US7837757B2, “Enhanced abscisic acid and fertilizer performance” (Valent BioSciences Corporation, priority 2007, dated 2010)

Legend:
[1] = tested on: tomato leaf transpiration; experiment: tomato leaf transpiration inhibition (porometer, normalized to water-sprayed plants); assay type: in vivo, Tomato (variety: Rutgers); details: foliar
[2] = tested on: tomato leaf; experiment: tomato leaf phytotoxicity (number of injured leaves) after foliar application

ammonium nitrate was tested, and the “Transpiration rate (% of control)” value ([1]; 1 mM NH4NO3 alone, 1 day after treatment) was 107 % of control, the “Transpiration rate (% of control)” value ([1]; 1 mM NH4NO3 alone, 2 days after treatment) was 107 % of control and the “Transpiration rate (% of control)” value ([1]; 1 mM NH4NO3 alone, 3 days after treatment) was 106 % of control. For the same substance, the “Transpiration rate (% of control)” value ([1]; 1 mM NH4NO3 alone, 4 days after treatment) was 83 % of control, the “Transpiration rate (% of control)” value ([1]; 10 mM NH4NO3 alone, 1 day after treatment) was 95 % of control and the “Transpiration rate (% of control)” value ([1]; 10 mM NH4NO3 alone, 2 days after treatment) was 95 % of control. For the same substance, the “Transpiration rate (% of control)” value ([1]; 10 mM NH4NO3 alone, 3 days after treatment) was 131 % of control, the “Transpiration rate (% of control)” value ([1]; 10 mM NH4NO3 alone, 4 days after treatment) was 106 % of control and the “Transpiration rate (% of control)” value ([1]; 100 mM NH4NO3 alone, 1 day after treatment) was 97 % of control. The “Transpiration rate (% of control)” value ([1]; 100 mM NH4NO3 alone, 2 days after treatment) was 97 % of control, the “Transpiration rate (% of control)” value ([1]; 100 mM NH4NO3 alone, 3 days after treatment) was 128 % of control and the “Transpiration rate (% of control)” value ([1]; 100 mM NH4NO3 alone, 4 days after treatment) was 107 % of control. The “effect on tomato leaf transpiration (in words)” value ([1]; fertilizer or salt alone at 1, 10 or 100 mM) was “did not reduce tomato leaf transpiration”, the “number of injured leaves” value ([2]; 100 mM NH4NO3 alone, 4 days after treatment, Table 9) was 8.8 and the “number of injured leaves” value ([2]; 100 mM ammonium nitrate without ABA, 4 days of treatment) was 8.8 injured leaves per plant.

Only a part of the results on these compounds is given; other tests are left out.
